Source: patent US6083922A (priority 1997, dated 2000)

Experiment: Randomized cross-over study of nebulizers, peak sputum tobramycin
Conditions: Pari LC; 60 mg/mL in 5 mL 1/4 NS

## NC[C@H]1O[C@H](O[C@H]2[C@H](O)[C@@H](O[C@H]3O[C@H](CO)[C@@H](O)[C@H](N)[C@H]3O)[C@H](N)C[C@@H]2N)[C@H](N)C[C@@H]1O [tobramycin]
  patients with sputum concentrations larger or equal to 128 μg/g: 87%
  patients with sputum concentrations lower than 128 μg/g: 13%
